From US20130197032A1, “[…] COMPOUNDS FOR THE TREATMENT OF NEUROLOGICAL AND […] DISORDERS” (A. CARLSSON RESEARCH AB, priority 2010, published 2013)

By UniProt entry, the sequences of proteins in these tests, tags left out.
UniProt P08908, whole entry: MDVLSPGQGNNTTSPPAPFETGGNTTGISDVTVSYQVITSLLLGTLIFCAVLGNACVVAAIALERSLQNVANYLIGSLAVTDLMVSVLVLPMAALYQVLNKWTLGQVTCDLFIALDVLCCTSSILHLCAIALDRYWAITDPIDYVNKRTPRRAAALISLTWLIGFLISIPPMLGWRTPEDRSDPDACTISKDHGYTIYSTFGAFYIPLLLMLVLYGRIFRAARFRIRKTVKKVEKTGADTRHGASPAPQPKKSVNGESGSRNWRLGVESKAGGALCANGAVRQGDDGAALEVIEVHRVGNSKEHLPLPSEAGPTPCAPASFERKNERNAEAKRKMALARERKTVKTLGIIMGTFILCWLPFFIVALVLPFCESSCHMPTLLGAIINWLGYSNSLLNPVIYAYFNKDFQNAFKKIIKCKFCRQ

Molecular target: T1, human 5-HT1A receptor (Homo sapiens, UniProt P08908)
T1 construct: expressed in transfected cells; host or cells: NIH/3T3
Experiment: R-SAT assay 5-HT1A
Assay type: cell-based
Conditions: Table 3, 5-HT1A; percent response of reference 8-OH-DPAT

CCCN(CCC)C1CCc2cccc(O)c2C1 (stereo not shown) [8-OH-DPAT]
Eff (%): 100%
